Screens deposited in PubChem by several laboratories.
Yeast UUG start – alters start codon recognition fidelity in yeast; S. cerevisiae UUG-firefly luciferase reporter, luminescence/redox ratio; activity score, % at 18.7 µM; actives 0.13% (n = 350,000); AID 602363;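 active = replicate mean at a twofold rise or more, about +100% in these data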;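 also: firefly luciferase made from a UUG start codon reports start codon fidelity; reporter light over untreated wells divided by growth signal over untreated wells; some hits fall short of that in this replicate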
Rce1 inhib – yeast Rce1p protease inhibitors, primary screen, biochemical, fluorescence, cell-free homogeneous. CAAX prenyl protease 2 (Saccharomyces cerevisiae (strain ATCC 204508 / S288c)), Q03530. yeast membranes, quenched prenylated peptide cleavage fluorescence. calls only. 290,000 compounds, 0.27% hits. AID 2563, 2010;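 active means fall in fluorescence gain of 50% or more versus controls, with final raw signal at or below 3038400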;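 further: plate controls were neutral control wells for no effect and wells lacking membranes for full effect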
TbMetRS inhib – T. brucei MetRS inhibitors, primary screen, biochemical, luminescence | purified T. brucei MetRS, ATP depletion, Kinase-Glo luminescence | inhibition, % at 11.9 µM | 360,000 compounds, 0.4% hits;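 active means inhibition above a per-plate cutoff of the control wells' mean inhibition plus 3 SD, cut at about 5.5% in these data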;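 further: 0% = DMSO wells median and 100% = median of wells with control inhibitor compound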
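assay system = parasite MetRS enzyme | timing = 15 min preincubation, 2 h reaction, all 25 °C | evaluation = percent inhibition relative to median high and low control wells | medium = HEPES buffer containing pyrophosphatase, BSA, spermine, DTT | compound = single dose, 11.9 µM final nominal, 0.9% final DMSO | detection = Kinase-Glo luminescence, ATP depletion format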
Arrestin-AP2 inh – inhibitors of beta-arrestin/AP2 binding, primary screen, biochemical, GPCR trafficking, flow cytometry | 340,000 compounds, 0.31% hits | FITC-arrestin peptide / GST-AP2 beads; AP2 beta2 appendage carries R879A mutation | inhibition, % at 10 µM | beta-arrestin 1 C-terminal peptide binding to AP2 beta2-adaptin appendage (human) | AID 504490, 2011;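 active means inhibition above a set limit, near 3 SD of compounds lacking own fluorescence, cut at about 54% in these data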;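 further: plate controls were DMSO wells for no effect and 5 µM unlabelled arrestin peptide for full effect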
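test system = AP2 appendage R879A on GSH beads | buffer or medium = PBS plus Tween 20 (0.05%) and BSA (0.1%) | incubation = 12 min plus 1 h, RT | detection = bead flow cytometry, FITC channel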
Pemphigus Ab inh – inhibitors of pemphigus antibody binding to DSG3, primary screen, biochemical, bead-based, flow cytometry, scFv-GFP; DSG3-coupled beads, scFv-anti-DSG3-GFP binding; hits give low values; binding (percent of control), % at 10 µM; Desmoglein-3 (Homo sapiens), P32926; AID 588358, 2011; 310,000 compounds, 0.48% hits;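 active means binding more than 3 SD below its plate's average and above zero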;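 further: hits lower antibody fragment binding to DSG3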
Arr-AP2 CP1 – inhibitors of arrestin peptide binding to AP2, confirmation, biochemical, cherry pick 1, flow cytometry beads; shares compounds with Arrestin-AP2 inh; inhibition, % at 10 µM; 1,300 compounds, 2% hits; GST-AP2 beads, FITC arrestin peptide binding; GST-fused beta2-adaptin appendage, R879A mutant;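 active means inhibition above a set limit, roughly 3 SD of non-fluorescent compound noise, cut at about 38% in these data; inactive means inhibition at or below that limit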;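 further: loss of bead fluorescence from 50 nM FITC arrestin peptide bound to appendage; 0% = negative control wells and 100% = excess unlabelled arrestin peptide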
GST-FITC bead – GST-fluorescein capture on glutathione beads, confirmation, artefact control for arrestin-AP2 inhibitor project, biochemical, cherry pick 1, flow cytometry | GST-fluorescein binding to GSH beads, fluorescence, counter-screen | AID 588338, 2011 | 1,300 compounds, 2% hits | inhibition, % at 10 µM | shares compounds with Arrestin-AP2 inh;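 active means inhibition above 50%, about 3 SD of the inhibition seen with non-fluorescent compounds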;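 further: fluorescein maleimide labelled GST captured on 4 micron glutathione beads; higher means more loss of bead fluorescence from quenching or blocked binding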
* = called active by the depositor; i = inactive; · = not tested or not shown. Rows were chosen to be rich in hits. Some 1.2% of all compounds tested hit in one or more screens of this group.

Under each structure – Arrestin-AP2 inh | TbMetRS inhib | Rce1 inhib | GST-FITC bead | Arr-AP2 CP1 | Pemphigus Ab inh | Yeast UUG start
- O=C(CCN1CCCCC1)N[C@H]1CC[C@H](CCNS(=O)(=O)c2ccccc2)O[C@H]1CO
  · | · | · | · | · | · | 13
- C[C@H]1CN([C@@H](C)CO)C(=O)CCCn2cc(nn2)CO[C@@H]1CN(C)Cc1ccc(C(=O)Nc2ccccc2N)cc1
  · | · | · | · | · | · | 1
- C[C@@H]1CCCCO[C@H](CN(C)Cc2ccc(C(F)(F)F)cc2)[C@H](C)CN([C@H](C)CO)C(=O)c2cc(NS(=O)(=O)c3ccc(F)cc3)ccc2O1
  · | · | · | · | · | · | 21
- CCCC#Cc1ccc2c(c1)O[C@@H](CN(C)C(=O)c1ccccn1)[C@@H](C)CN([C@@H](C)CO)S2(=O)=O
  · | · | · | · | · | · | 4
- CC(C)NC(=O)N(C)C[C@H]1Oc2ccc(NC(=O)NC3CCCCC3)cc2CC(=O)N([C@@H](C)CO)C[C@H]1C
  · | · | · | · | · | · | -5
- Cn1c(N)c(C(=O)COC(=O)c2ccco2)c(=O)n(C)c1=O
  7 | -1 | i | 0 | 5 | 280 | -10
- CC(C)c1ccc(C(=O)OCC(=O)c2c(N)n(C)c(=O)n(C)c2=O)cc1
  20 | 0 | · | 3 | 18 | 96 | -2
- Cn1c(N)c(C(=O)COC(=O)c2ccc(F)cc2Cl)c(=O)n(C)c1=O
  -12 | 0 | · | 7 | 11 | 98 | -13
- C[C@H](CO)N1C[C@H](C)[C@@H](CN(C)Cc2ccc(C(F)(F)F)cc2)Oc2ccc(NC(=O)Nc3ccc(C(F)(F)F)cc3)cc2C1=O
  · | · | · | · | · | · | -1
- O=C(CN1C(=O)COc2ccccc21)NCCCN1CCCC1
  64* | -1 | i | -7 | -2 | 101 | -3
- C[C@H]1CCCCO[C@H](CN(C)S(=O)(=O)c2ccc(F)cc2)[C@@H](C)CN([C@@H](C)CO)C(=O)c2cc(NC(=O)CCC(F)(F)F)ccc2O1
  · | · | · | · | · | · | -1
- C[C@@H]1CCCCO[C@H](CN(C)Cc2ccc3c(c2)OCO3)[C@@H](C)CN([C@@H](C)CO)C(=O)c2cc(NC(=O)C3CCCCC3)ccc2O1
  · | · | · | · | · | · | 10
- Cc1nc2c(C)cccn2c(=O)c1NC(=O)c1cccs1
  66* | -1 | i | 5 | 6 | 103 | -6
- Cc1ccc(C(=O)N/C(=C\c2ccco2)C(=O)NCCCN2CCOCC2)cc1C
  21 | -1 | i | · | · | · | -20
- Cc1ccc(C(=O)N/C(=C\c2ccco2)C(=O)NCCN2CCOCC2)cc1C
  56* | 0 | · | 1 | -5 | 110 | -4

(next part)
Under each structure – Arrestin-AP2 inh | TbMetRS inhib | Rce1 inhib | GST-FITC bead | Arr-AP2 CP1 | Pemphigus Ab inh | Yeast UUG start
- CSCCC(NS(=O)(=O)c1ccccc1F)C(=O)NCC(C)(C)N1CCOCC1 (stereo not given)
  56* | 0 | · | 1 | 4 | 101 | -16
- CC(C)(C)[C@H]1C=C(C(=O)N2CCOCC2)O[C@@H](OCCCCO)C1
  54* | 0 | i | -2 | -7 | 98 | -9
- C[C@@H]1CN([C@@H](C)CO)S(=O)(=O)c2ccc(-c3ccc(F)cc3)cc2O[C@H]1CN(C)C(=O)C1CC1
  · | · | · | · | · | · | 6
- C=CCN1C(=O)c2ccc(C(=O)N3CCN(S(=O)(=O)c4cccc(F)c4)CC3)cc2C1=O
  66* | 0 | i | -10 | 5 | 100 | ·
- COc1ccc(Cn2c(=O)[nH]c3cc(C(=O)NCCc4ccc(S(N)(=O)=O)cc4)ccc3c2=O)cc1
  110* | 1 | i | -15 | -1 | 95 | ·
- Cc1cccc(C(=O)Oc2ccc(/C=N/NC(=O)c3ccc(O)cc3)cc2)c1
  34 | 0 | i | · | · | 101 | -15
- Cc1cccc(C(=O)Oc2ccc(/C=N/NC(=O)Cc3ccc([N+](=O)[O-])cc3)cc2)c1
  105* | -1 | i | 59* | -3 | 87 | -15
- Cc1cc(=O)n(CC(=O)O)c2ccccc12
  0 | 0 | i | · | · | 94 | ·
- Cc1cc(C)n(CC(=O)O)c(=O)c1[N+](=O)[O-]
  66* | 0 | i | -2 | -11 | 110 | ·
- CCOC(=O)C1=C(COC(=O)CCOc2cccc(C)c2)NC(=O)NC1C (stereo not given)
  11 | 0 | i | -6 | -8 | 119 | 10
- CCOC(=O)C1=C(COC(=O)CCOc2ccccc2)NC(=O)NC1C (stereo not given)
  -8 | 0 | · | -11 | -10 | 101 | -2
- CCOC(=O)C1=C(COC(=O)CCOc2cc(C)ccc2C)NC(=O)NC1C (stereo not given)
  -6 | 0 | · | -9 | -3 | 90 | 3
- C[C@@H]1CCCCO[C@@H](CN(C)S(=O)(=O)c2ccc(F)cc2)[C@H](C)CN([C@@H](C)CO)C(=O)c2cc(NC(=O)CCC(F)(F)F)ccc2O1
  · | · | · | · | · | · | 7
- CCCC(=O)Nc1ccc2c(c1)C(=O)N(C)[C@H]1CC[C@@H](CC(=O)NCc3ccccc3)O[C@H]1CO2
  · | · | · | · | · | · | 4
- CCCC#Cc1ccc([C@@H]2[C@H](C#N)N(C(=O)C3CC3)[C@H]2CO)cc1
  · | · | · | · | · | · | 34

Overlap with the part before: four compounds, then new ones.
Under each structure – Arrestin-AP2 inh | TbMetRS inhib | Rce1 inhib | GST-FITC bead | Arr-AP2 CP1 | Pemphigus Ab inh | Yeast UUG start
- CCOC(=O)C1=C(COC(=O)CCOc2cc(C)ccc2C)NC(=O)NC1C (stereo not given)
  -6 | 0 | · | -9 | -3 | 90 | 3
- C[C@@H]1CCCCO[C@@H](CN(C)S(=O)(=O)c2ccc(F)cc2)[C@H](C)CN([C@@H](C)CO)C(=O)c2cc(NC(=O)CCC(F)(F)F)ccc2O1
  · | · | · | · | · | · | 7
- CCCC(=O)Nc1ccc2c(c1)C(=O)N(C)[C@H]1CC[C@@H](CC(=O)NCc3ccccc3)O[C@H]1CO2
  · | · | · | · | · | · | 4
- CCCC#Cc1ccc([C@@H]2[C@H](C#N)N(C(=O)C3CC3)[C@H]2CO)cc1
  · | · | · | · | · | · | 34
- CCOc1ccc(C(=O)Nc2cc3c(cc2N2CCCC2)n(CC)c(=O)n3CC)cc1OCC
  -3 | -1 | i | -7 | 0 | 110 | -7
- CCn1c(=O)n(CC)c2cc(N3CCCC3)c(NC(=O)c3cccc(OC)c3)cc21
  4 | 0 | i | 5 | 2 | 105 | -6
- CCn1c(=O)n(CC)c2cc(N3CCCC3)c(NC(=O)c3c(F)cccc3F)cc21
  16 | 0 | i | -1 | -6 | 100 | -25
- CCn1c(=O)n(CC)c2cc(N3CCCC3)c(NC(=O)c3ccc(F)cc3)cc21
  7 | 0 | i | 1 | 11 | 101 | -20
- CCn1c(=O)c(C(=O)Nc2ccccc2F)c(O)c2ccccc21
  33 | -1 | i | · | · | 107 | -9
- COc1cccc(-c2cnc3c(c2)C(=O)N([C@H](C)CO)C[C@H](C)[C@H](CN(C)S(=O)(=O)c2cn(C)cn2)O3)c1
  · | · | · | · | · | · | 2
- C[C@H]1CCCCO[C@@H](CN(C)C(=O)Nc2ccc(F)cc2)[C@@H](C)CN([C@@H](C)CO)C(=O)c2cc(NC(=O)c3ccncc3)ccc2O1
  · | · | · | · | · | · | -8
- C[C@H](CO)N1C[C@H](C)[C@H](CN(C)Cc2ccc(C(=O)O)cc2)Oc2ccc(NC(=O)Nc3ccc(F)cc3)cc2C1=O
  · | · | · | · | · | · | 7
